Screening results from PubChem.
Hits are enriched below; roughly 1.3% of the tested compounds scored in any of these assays.
PglD inh – PglD (C. jejuni) enzyme inhibition | inhibition, % at 12.5 µM | hit rate 0.098% among 360,000 | purified PglD enzyme, DTNB colorimetric CoA detection; in the data active = inhibition above about 16%, passing the limit was not always enough
EWS-Fli block – blocks EWS/Fli oncoprotein-driven transcription. A673 NR0B1-luciferase reporter, viability-normalised. inhibition, % at 12.6 µM. hit rate 0.67% among 350,000. AID 651661;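 active = mean inhibition of at least 50% after viability correction, with every replicate also passing that limit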;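 also: firefly luciferase signal divided by Alamar Blue viability fluorescence both relative to DMSO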
F508del corr – CFTR F508del correction in bronchial cells; CFBE cells, YFP halide quenching; stimulated with forskolin plus potentiator P3; % fluorescence drop versus neutral controls; activity (quench increase), % at 7.58 µM; hit rate 0.36% among 350,000;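 active = mean added fluorescence quench of at least 8% versus neutral control, with both replicates also reaching 8%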;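 also: cells transiently co-express mutant CFTR-F508del with the halide-sensitive YFP; corrector assay measuring rescue of mutant channel to the surface after 24 h compound exposure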
miR122 inh – blocks miR-122 activity in Huh7 sensor cells | Huh7 miR-122 Renilla luciferase sensor, 48 h; neutral wells = 0, positive control = 100 | activation (reporter increase), % at 12.5 µM | hit rate 0.3% among 340,000 | AID 602342;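 active = mean replicate activation score at least 90 and every replicate individually at or above 90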;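 also: higher luciferase means less miR-122 activity so hits act as miR-122 inhibitors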
Yeast UUG start – alters start codon recognition fidelity in yeast | S. cerevisiae UUG-firefly luciferase reporter, luminescence/redox ratio | activity score, % at 18.7 µM | hit rate 0.13% among 350,000 | AID 602363;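 active means replicate mean at a twofold rise or more, about +100% in these data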;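 further: firefly luciferase made from a UUG start codon reports start codon fidelity; reporter light over untreated wells divided by growth signal over untreated wells; some hits fall short of that in this replicate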
LGR2 antag – blocks bursicon-induced cAMP signaling via Drosophila LGR2; hit rate 0.35% among 380,000; HEK293 LGR2, CRE-luciferase, bursicon-stimulated, 4 h; AID 720647; inhibition, % at 9.99 µM;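 active = drop in luminescence signal, shown as inhibition above about 50% in the replicate tests, limit read from the data, passing the limit was not always enough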;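 also: agonist challenge used bursicon conditioned medium at about half maximal strength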
An asterisk follows results filed as active; nt = no result; ! = not confirmed by another sample; [ ] = another dose, or the depositor's remark.

1: COC(=O)c1sc(NC(=O)CSc2nc3cccnc3n2C)nc1C
2: COc1ccc(C2c3ccc4ccccc4c3Oc3ncn(CCO)c(=N)c32)cc1OC (configuration not stated)
3: COc1ccc(C2c3ccc4ccccc4c3Oc3ncn(CCCO)c(=N)c32)cc1OC (configuration not stated)
4: COC(=O)[C@@H]1[C@@H](CO)[C@@H]2Cn3c(ccc(-c4cncnc4)c3=O)[C@@H]2N1C(=O)C1CCC1
5: NC(=O)CN1C(=O)C2C3CCC(C3)C2C1=O (configuration not stated)
6: COc1ccc(NC(=O)N(C)C[C@H]2Oc3cc(-c4ccc(C)cc4)ccc3S(=O)(=O)N([C@@H](C)CO)C[C@H]2C)cc1
7: CC(C)(C)c1cc(C(=O)NNc2cccc(Cl)c2)n(Cc2ccccc2)n1
8: O=C(CCc1nc2ccccc2c(=O)[nH]1)N1CCN(S(=O)(=O)c2cc(Cl)ccc2Cl)CC1
compound no.	1	2	3	4	5	6	7	8
F508del corr	-2	nt	15*	-7	0	0	-4	1
miR122 inh	-8	-15	nt	2[16.7 µM]	-2	-25[16.7 µM]	126*	-3
LGR2 antag	4	15	-2	2	-6	5	-13	-8
EWS-Fli block	-22	nt	8	0	1	17	-55	-9
PglD inh	5	2	nt	0	0	1	4	4
Yeast UUG start	-10	-9	nt	nt	-15	-2	-10	-4

From entry 7 as far as 8, as listed above:
7: CC(C)(C)c1cc(C(=O)NNc2cccc(Cl)c2)n(Cc2ccccc2)n1
8: O=C(CCc1nc2ccccc2c(=O)[nH]1)N1CCN(S(=O)(=O)c2cc(Cl)ccc2Cl)CC1
compound no.	7	8
F508del corr	-4	1
miR122 inh	126*	-3
LGR2 antag	-13	-8
EWS-Fli block	-55	-9
PglD inh	4	4
Yeast UUG start	-10	-4

Remaining list, next part
9: COc1ccccc1-c1cc2nc(-c3ccccc3)cc(N3CCN(C(=O)c4ccoc4)CC3)n2n1
10: COc1ccccc1-c1cc2nc(-c3ccccc3)cc(N3CCN(C(=O)c4ccco4)CC3)n2n1
11: COC(=O)c1ccc2c(c1)C(C)(C)C(/C=C/c1ccccc1O)=[N+]2C
12: COC(=O)c1cc(=O)n(Cc2ccc(OC)c(OC)c2)c(=Nc2ccc(F)cc2)s1
13: COC(=O)c1cc(=O)n(Cc2ccco2)c(=Nc2ccc(F)cc2)s1
14: COC(=O)c1cc(=O)n(CCc2ccc(OC)c(OC)c2)c(=Nc2ccc(F)c(Cl)c2)s1
15: COC(=O)c1cc(=O)n(Cc2ccc(F)cc2)c(=Nc2ccccc2)s1
16: CCn1c(=O)cc(SCC(=O)N2CCC(C)CC2)c2ccccc21
compound no.	9	10	11	12	13	14	15	16
F508del corr	-2	-1	nt	1	nt	1	-2	nt
miR122 inh	-12	-11	23	-4	-6	nt	2	4
LGR2 antag	36	89*	56*	62*	nt	55*	24	7
EWS-Fli block	22	-24	nt	3	nt	13	21	nt
PglD inh	-3	1	nt	-3	-5	0	nt	nt
Yeast UUG start	3	-11	nt	-3	-9	7	nt	nt

17: CCN(CC)CCNc1ccc(C)c2sc3ccc(O)cc3c(=O)c12
18: CCN(CC)CCNc1ccc(CO)c2oc3cc(Cl)ccc3c(=O)c12
19: CN(C)CCNc1ccc(CO)c2oc3ccc(O)cc3c(=O)c12
20: CC(C)(C)c1cc(NCc2ccccn2)n2ncc(-c3ccccc3)c2n1
21: O=C(c1cccc(F)c1)N1C[C@H]2[C@@H](c3ccccc31)[C@@H](CO)N2C(=O)C1CCOCC1
22: O=C(NCC[C@H]1CC[C@@H](NC(=O)C2CCOCC2)[C@@H](CO)O1)c1ccc(F)cc1
23: C[C@@H]1CN([C@@H](C)CO)C(=O)c2cccc(NC(=O)c3ccncc3)c2O[C@@H]1CN(C)CC1CCCCC1
24: C[C@H](CO)N1C[C@H](C)[C@@H](CN(C)CC2CCCCC2)Oc2c(NC(=O)c3ccncc3)cccc2C1=O
compound no.	17	18	19	20	21	22	23	24
F508del corr	4	9.0*	2	4	0	-1	0	1
miR122 inh	-1	0	-11	nt	-7[16.7 µM]	nt	-1[16.7 µM]	127*[16.7 µM]
LGR2 antag	8	nt	32	nt	14	11	1	nt
EWS-Fli block	8	-3	55*	-43	-2	10	-8	-13
PglD inh	nt	1	nt	nt	0	0	0	-1
Yeast UUG start	nt	-7	nt	nt	6	0	-14	-3

25: C[C@H](CO)N1C[C@H](C)[C@@H](CN(C)Cc2ccc(Cl)c(Cl)c2)Oc2c(NC(=O)c3ccncc3)cccc2C1=O
26: C[C@H]1CN([C@@H](C)CO)C(=O)c2cccc(NC(=O)c3ccncc3)c2O[C@@H]1CN(C)CC1CCCCC1
27: Cc1ccc(N=C2SC(C(=O)Nc3ccc(OC(F)(F)F)cc3)C(N)=C2C(=O)Nc2c(C)cc(C)cc2C)cc1 (configuration not stated)
28: CNC[C@@H]1Oc2ncc(-c3ccccc3C)cc2C(=O)N([C@@H](C)CO)C[C@@H]1C
compound no.	25	26	27	28
F508del corr	1	0	nt	1
miR122 inh	106*![16.7 µM]	91*[16.7 µM]	nt	1[16.7 µM]
LGR2 antag	-7	-35	-3	7
EWS-Fli block	9	8	nt	6
PglD inh	-2	-1	nt	5
Yeast UUG start	4	-14	nt	22
